# Results taken from patent US9132169B2, “Methods and compositions for modulating adipocyte function” (Joslin Diabetes Center, Inc., priority 2003, dated 2015).
# B1: BMP-2: bone morphogenetic protein 2, added at 33 nM to culture medium (protein, listed as Homo sapiens)
# chain: QAKHKQRKRLKSSCKRHPLYVDFSDVGWNDWIVAPPGYHAFYCHGECPFPLADHLNSTNHAIVQTLVNSVNSKIPKACCVPTELSAISMLYLDENEKVVLKNYQDMVVEGCGCR
# System: WT brown preadipocytes
# Assay: Brown adipocyte differentiation, Oil Red O staining
# Assay type: cell-based, mouse
# Settings: 33 nM BMP, 10 days, absence of induction cocktail
# Experimental: Preadipocytes were grown to confluence (day 0) in differentiation medium (Dulbecco's modified […] medium containing 10% Fetal Bovine Serum supplemented with 20 nM insulin and 1 nM T3). Adipocyte differentiation was induced by treating confluent cells for 48 hours in differentiation medium further supplemented with 0.5 mM isobutylmethylxanthine (IBMX), 0.5 mM dexamethazone, and 0.125 mM indomethacin. After this induction period (day 2), cells were placed back to differentiation medium, which was then changed every second day.
# Dishes were washed twice with phosphate-buffered saline and fixed with 10% buffered formalin for at least 1 hour at room temperature. Cells were then stained for 2 hours at room temperature with a filtered oil red 0 solution (0.5% oil red 0 in isopropyl alcohol), washed twice with distilled water, and visualized.
# Brown fat precursor cells were isolated from intrascapular brown fat of newborn mice and immortalized by SV40 T antigen. […] Once fully differentiated, multi-locular fat droplets could be detected both microscopically and by Oil Red-O staining. Expression of UCP-1 was detected at basal state and upon β-adrenergic stimulation, confirming the features of brown adipocytes (methods described in Klein et al., J. Biol. Chem. 274:34795-34802 (1999)). […]
molecule,measurement,value
B1,lipid accumulation as monitored by Oil Red O staining (brown adipocyte differentiation),substantial increase in lipid accumulation
